Biological target: KOR (Mus musculus, UniProt P33534)
Experiment: 55° C. warm water tail withdrawal test, antagonism of the KOR agonist U50,488

By UniProt entry, the sequences of proteins in these tests, tags left out. Where a name states a change or a piece, a line headed by the entry shows the natural chain unless it says otherwise.
UniProt P33534: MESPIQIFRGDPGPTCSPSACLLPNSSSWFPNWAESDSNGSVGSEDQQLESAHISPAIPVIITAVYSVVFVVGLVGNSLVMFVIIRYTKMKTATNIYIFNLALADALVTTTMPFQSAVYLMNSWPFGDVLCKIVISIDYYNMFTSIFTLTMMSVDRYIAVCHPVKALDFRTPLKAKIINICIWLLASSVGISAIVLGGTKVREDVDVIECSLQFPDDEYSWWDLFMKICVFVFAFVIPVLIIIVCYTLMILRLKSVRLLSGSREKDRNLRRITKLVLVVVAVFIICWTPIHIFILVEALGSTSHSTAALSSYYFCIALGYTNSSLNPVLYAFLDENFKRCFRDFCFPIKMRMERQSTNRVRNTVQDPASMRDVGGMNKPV

Substance: cyclo[Phe-cis-D-Hyp(Gly)^2-Phe-D-Trp]
- antagonism of U50,488 administered i.p. (30 nmol i.c.v. (FIG. 8)): significant antagonism
- antagonism of U50,488 administered i.p. (100 nmol i.c.v. (FIG. 8)): significant antagonism
- KOR antagonism after subcutaneous administration (30 mg/kg subcutaneous (FIG. 8, FIG. 9)): significant KOR antagonism
